Test system: beige adipocytes
Assay: High-throughput primary screen, lipolysis assay (glycerol release), 384-well
Type: cell-based, human
Experimental: ADSCs were seeded at 5000 cell/cm^2 in 12-well plates, grown for 5 days and then induced to differentiate into GC for 20 days. […] Cells were treated with forskolin (20 μM) for indicated time periods and supernatant samples were collected. Lipolysis assay was performed with free glycerol reagent (Sigma, F6428-40ML), according to manufacturer instructions.
ADSCs were plated in 384-well plates at a density of 5000 cell/cm2 and grown to confluency over ˜4 days. Cells were then differentiated to beige adipocytes using B-8 medium for 21 days. All cell culture and incubations in the 384-well format were done at 37° C. and 5% CO2. […] The use of FDA-approved drugs may allow for re-purposing for therapeutic use.
Lipolysis assays were performed after 24 hours of drug treatment by measuring free glycerol released in the 384-well format, using the procedure described above. Absorbance for each compound was normalized to untreated control samples for each plate and calculated as a percent of the control. Cut-offs for “activating” and “inhibiting” compounds were set at 2-fold. Validation assays were performed for select compounds at a range of concentration doses.

Structure (SMILES): O=[N+]([O-])c1ccc(-c2nc(-c3ccncc3)c(-c3ccc(F)cc3)[nH]2)cc1 [PD 169316]
- % Control (relative levels of glycerol release): 39.64 % control
